Measurements published in ChEMBL document CHEMBL3045895 (Med Chem Res, 2012).

Test: Selectivity ratio of IC50 for beta-glucuronidase (unknown origin) to IC50 for jack bean urease

## Cc1cc(C)n(CN(Cn2nc(C)cc2C)C2CCCCC2)n1
  Ratio IC50: 10
